Assay [1] has as its target T1, Mu-type opioid receptor (Homo sapiens, UniProt P35372).
For assay [2], the target named is T2, Kappa-type opioid receptor (Homo sapiens, UniProt P41145). The settings on record: sf9.
The target of assay [3] is T2, Kappa-type opioid receptor.
Assay [4] concerns the target T1, Mu-type opioid receptor. This is another data set of the same source.

Molecules are shown by their SMILES.

Take `COc1ccc2c3c1O[C@H]1[C@@]4(OC)CC[C@@]5(C[C@@H]4COCc4ccc(CC(=O)O)cc4)[C@@H](C2)N(CC2CC2)CC[C@]315`: the Ki (in general, a dissociation constant, usually derived from enzyme kinetics or from competition with a known ligand) on Mu-type opioid receptor [1] worked out at 1010 nM; in assay [2], 517 nM. Also, the EC50 (as a rule, the concentration needed to bring the measured effect to its halfway point) in assay [3] stood at 901 nM.

Turning to `COc1ccc2c3c1O[C@H]1[C@@]4(OC)CC[C@@]5(C[C@@H]4COCc4cccc(CC(=O)O)c4)[C@@H](C2)N(CC2CC2)CC[C@]315`, in assay [3], the EC50 turned out to be 625 nM.

The compound `COc1ccc2c3c1O[C@H]1[C@@]4(OC)CC[C@@]5(C[C@@H]4COC(=O)[C@@H](N)CO)[C@@H](C2)N(CC2CC2)CC[C@]315` displayed a Ki at Mu-type opioid receptor [1] of 362 nM. The compound further registered an EC50 in assay [3] of 603 nM.

As to `COc1ccc2c3c1O[C@H]1[C@@]4(OC)CC[C@@]5([C@@H](CCC(=O)O)[C@@H]4COCc4ccccc4)[C@@H](C2)N(CC2CC2)CC[C@]315`, at Mu-type opioid receptor [1], the affinity corresponds to a Ki of 927 nM. Besides, it took 1900 nM to reach a half-maximal effect in assay [3] (EC50).

Regarding `COc1ccc2c3c1O[C@H]1[C@@]4(OC)CC[C@@]5(C[C@@H]4COC(=O)[C@@H](N)CCC(N)=O)[C@@H](C2)N(CC2CC2)CC[C@]315`, the values for the Ki (on Mu-type opioid receptor [1]; in assay [2]) were 170 nM and 12.7 nM, respectively.

`COc1ccc2c3c1O[C@H]1[C@@]4(OC)CC[C@@]5(C[C@@H]4COCc4ccccc4)[C@@H](C2)N(Cc2nn[nH]n2)CC[C@]315` came in with an inhibition constant Ki at Mu-type opioid receptor [1] of 986 nM. On Mu-type opioid receptor [4], this compound yielded an EC50 of 1360 nM.

Turning to `COc1ccc2c3c1O[C@H]1[C@@]4(OC)CC[C@@]5(C[C@@H]4COCc4ccc(Cc6nn[nH]n6)cc4)[C@@H](C2)N(CC2CC2)CC[C@]315`, the results for the Ki (at Mu-type opioid receptor [1]; in assay [2]) were 1770 nM and 181 nM, respectively.

Turning to `COc1ccc2c3c1O[C@H]1[C@@]4(OC)CC[C@@]5(C[C@@H]4COCc4ccccc4)[C@@H](C2)N(CC(=O)O)CC[C@]315`, the Ki at Mu-type opioid receptor [1] stood at 312 nM. On Mu-type opioid receptor [4], this compound showed an EC50 of 982 nM.

Take `CO[C@]12CC[C@@]3(C[C@@H]1COCc1cccc(OCC(=O)O)c1)[C@H]1Cc4ccc(O)c5c4[C@@]3(CCN1CC1CC1)[C@H]2O5`: a half-maximal effect in assay [3] (EC50) was put at 28.5 nM.

In the case of `COc1ccc2c3c1O[C@H]1[C@@]4(OC)CC[C@@]5(C[C@@H]4COCc4ccc(N(S(C)(=O)=O)S(C)(=O)=O)cc4)[C@@H](C2)N(CC2CC2)CC[C@]315`, the Ki in assay [2] was 20.6 nM. The EC50 in assay [3] was 277 nM.

`CO[C@]12CC[C@@]3(C[C@@H]1COCc1cccc(NC(C)=O)c1)[C@H]1Cc4ccc(O)c5c4[C@@]3(CCN1CC1CC1)[C@H]2O5` showed a Ki in assay [2] of 0.05 nM. Besides, the EC50 in assay [3] was determined as 0.2 nM.

Consider `CO[C@]12CC[C@@]3(C[C@@H]1COCc1ccccc1)[C@H]1Cc4ccc(CC(O)CO)c5c4[C@@]3(CCN1CC1CC1)[C@H]2O5` (some centres not stated), for which affinity on Mu-type opioid receptor [1] was put at a Ki of 261 nM. Also, it took 148 nM to reach a half-maximal effect in assay [3] (EC50).

In the case of `COc1ccc2c3c1O[C@H]1[C@@]4(OC)CC[C@@]5(C[C@@H]4COCc4ccc(NC(C)=O)cc4)[C@@H](C2)N(CC2CC2)CC[C@]315`, the results for the Ki (at Mu-type opioid receptor [1]; in assay [2]) were 156 nM and 38.4 nM, respectively. For the same compound, the EC50 in assay [3] was 589 nM.

Take `COc1ccc2c3c1O[C@H]1[C@@]4(OC)CC[C@@]5(C[C@@H]4COCc4cccc(C(=N)N)c4)[C@@H](C2)N(CC2CC2)CC[C@]315`: the Ki on Mu-type opioid receptor [1] is 35.8 nM. Besides, the EC50 in assay [3] stood at 135 nM.

As to `COc1ccc2c3c1O[C@H]1[C@@]4(OC)CC[C@@]5(C[C@@H]4COCc4ccc(C(O)CO)cc4)[C@@H](C2)N(CC2CC2)CC[C@]315` (some centres not stated), the Ki at Mu-type opioid receptor [1] amounted to 54.8 nM. Besides, the EC50 in assay [3] is 156 nM.

Regarding `COC(=O)COc1cccc(COC[C@H]2C[C@@]34CC[C@]2(OC)[C@@H]2Oc5c(O)ccc6c5[C@@]23CCN(CC2CC2)[C@@H]4C6)c1`, in assay [2], the Ki was 0.2 nM.

Consider `CO[C@]12CC[C@@]3(C[C@@H]1COCc1ccc(C(N)=O)cc1)[C@H]1Cc4ccc(O)c5c4[C@@]3(CCN1CC1CC1)[C@H]2O5`, for which the Ki in assay [2] was determined as 0.014 nM.

As to `COc1ccc2c3c1O[C@H]1[C@@]4(OC)CC[C@@]5([C@@H](CC#N)[C@@H]4COCc4ccccc4)[C@@H](C2)N(CC2CC2)CC[C@]315`, the Ki worked out at 60.5 nM at Mu-type opioid receptor [1] and 6.75 nM in assay [2]. Further, a half-maximal effect in assay [3] (EC50) was put at 824 nM.

Regarding `CO[C@]12CC[C@@]3(C[C@@H]1COCc1ccccc1)[C@H]1Cc4ccc(-c5nn[nH]n5)c5c4[C@@]3(CCN1CC1CC1)[C@H]2O5`, the Ki at Mu-type opioid receptor [1] is 339 nM. Further, the midpoint of the response on Mu-type opioid receptor [4], the EC50, lay at 552 nM.

Values taken from ChEMBL document CHEMBL3886452, “Buprenorphine analogs” (2015).
